Test results: PubChem BioAssay AID1242 (PCMD, 2008)
This is a selection; strong and weak results do not stand in their true shares. Active and inactive are the calls of the source.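 How the source made its calls: active means inhibition above 30.3% in the primary screen of four-compound pools, then above 30% when the compound was retested; inconclusive means passed the primary limit but could not be retested; inactive means the rest.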

Experiment: clotrimazole potentiators killing C. albicans biofilm, primary screen, 4-compound mixtures (AID 1242);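 further: compounds exposed to preformed 24 h biofilms for 48 h; 0% = untreated biofilm control and 100% = clotrimazole plus chlorhexidine kill blank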
Settings: C. albicans biofilm persisters + clotrimazole, fluorescence viability; primary screen in compound mixtures of four per well; at 7.6 µM; active compounds read high
Method in brief: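 Test system: C. albicans biofilms. Buffer or medium: RPMI/MOPS medium, pH 7.0. Timing: 48 h compound exposure at 37 °C. Technique: Alamar Blue fluorescence. Evaluation: percent inhibition of biofilm viability.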

Compound	inhibition
CCCOc1ccc(NP(C)(=O)Oc2ccc(Cl)cc2)cc1 (stereo unspecified)	inactive: -1.7%
